The structures appear in SMILES notation.

The assay has as its system opioid receptor. The following applies: agonist activity relative to DAMGO (=1.0); guinea pig ileum longitudinal muscle sample. How it is done: Test 1: Action on the ileum sample excised from a guinea pig
A Hartley male guinea pig of about 500 g in weight was employed. From its ileocecum, 15 to 30 cm of the ileum was excised and a longitudinal muscle sample attached with the Auerbach's plexus was prepared. […] The agonist activity was indicated in terms of relative potency to DAMGO ([D-Ala^2, N-MePhe^4, Gly^5-ol]-enkephalin), a selective μ-opioid agonist.

As to `CN1CC[C@]23c4c5ccc(O)c4O[C@H]2[C@@H](O)C=C[C@H]3[C@H]1C5` [Morphine], the Relative potency came out at 0.14.

(Values after US6362203B1, “4-hydroxy-4-phenylpiperidine derivatives and pharmaceuticals containing the same” (SSP Co., LTD, priority 1999, dated 2002).)
